Results on 1 molecule are retold here after PMC5623949, “Exploiting the 2-Amino-1,3,4-thiadiazole Scaffold To Inhibit Trypanosoma brucei Pteridine Reductase in Support of Early-Stage Drug Discovery” (ACS Omega, 2017).

This assay deals with T1, TbPTR1 (Trypanosoma brucei brucei, UniProt O76290).
T1 construct: made in house
T1 sequence (O76290 1-268): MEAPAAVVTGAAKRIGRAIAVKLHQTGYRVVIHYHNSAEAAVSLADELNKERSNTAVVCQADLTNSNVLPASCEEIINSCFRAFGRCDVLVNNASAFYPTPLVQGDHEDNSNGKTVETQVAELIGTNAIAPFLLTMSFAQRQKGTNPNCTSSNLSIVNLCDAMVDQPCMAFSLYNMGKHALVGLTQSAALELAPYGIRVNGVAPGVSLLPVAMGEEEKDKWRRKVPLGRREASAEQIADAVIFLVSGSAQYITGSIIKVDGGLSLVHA
As to the kind of experiment: biochemical.

pIC50: −log10 of the molar value.

The term pIC50 denotes the IC50 on a negative log10 scale, so that one unit is a factor of ten. A high value points to a small IC50. On to `CCc1nc(N)nc(N)c1-c1ccc(Cl)cc1` [pyrimethamine, reference compound], for which the pIC50 was 7.05.
